In ChEMBL document CHEMBL1135721, “Pyridophens: binary pyridostigmine-aprophen prodrugs with differential inhibition of acetylcholinesterase, butyrylcholinesterase, and muscarinic receptors” (2002):

Legend:
[1] = target: Butyrylcholinesterase (Equus caballus) (UniProt Q9N1N9); assay: Inhibitory activity against Butyrylcholinesterase (BChE) and Bimolecular rate was reported
[2] = target: Butyrylcholinesterase (Equus caballus) (UniProt Q9N1N9); assay: Inhibitory activity against Butyrylcholinesterase (BChE) Carbamylation rate was reported
[3] = target: T1, Acetylcholinesterase (Bos taurus) (UniProt P23795); assay: Inhibitory activity against Acetylcholinesterase (AChE) and Carbamylation rate was reported
T1 sequence (whole entry): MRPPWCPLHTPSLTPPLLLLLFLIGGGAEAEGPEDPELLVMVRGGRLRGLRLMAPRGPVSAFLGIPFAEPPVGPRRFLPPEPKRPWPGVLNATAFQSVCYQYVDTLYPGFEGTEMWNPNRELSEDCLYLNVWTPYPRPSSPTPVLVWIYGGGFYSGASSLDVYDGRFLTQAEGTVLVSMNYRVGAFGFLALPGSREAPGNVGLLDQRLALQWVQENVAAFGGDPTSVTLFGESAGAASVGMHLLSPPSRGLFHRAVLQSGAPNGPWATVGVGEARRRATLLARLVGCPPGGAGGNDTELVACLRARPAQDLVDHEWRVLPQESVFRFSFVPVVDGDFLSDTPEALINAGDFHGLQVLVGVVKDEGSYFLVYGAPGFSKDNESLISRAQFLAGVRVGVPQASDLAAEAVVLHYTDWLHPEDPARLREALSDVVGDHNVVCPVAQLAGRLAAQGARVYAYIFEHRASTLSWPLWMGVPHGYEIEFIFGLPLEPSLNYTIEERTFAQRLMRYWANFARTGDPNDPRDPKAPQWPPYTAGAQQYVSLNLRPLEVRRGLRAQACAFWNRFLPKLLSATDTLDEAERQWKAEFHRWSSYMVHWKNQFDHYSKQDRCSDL

[4] = target: T1, Acetylcholinesterase (Bos taurus); assay: Inhibitory activity against Acetylcholinesterase (AChE) and Bimolecular rate constant was reported
[5] = target: T1, Acetylcholinesterase (Bos taurus); assay: Inhibitory activity against Acetylcholinesterase (AChE) inhibitor and Bimolecular rate constant was reported

Structure (SMILES)	k2' [1] [M⁻¹ s⁻¹]	k2c [2] [min⁻¹]	k2c [3] [min⁻¹]	k2' [4] [M⁻¹ s⁻¹]	k2' [5] [M⁻¹ s⁻¹]
CN(C)C(=O)Oc1ccc[n+](C)c1	0.076	0.52	5.78	0.0485	
CN(C)C(=O)Oc1cccnc1COC(=O)C(C)(c1ccccc1)c1ccccc1	5.72e-07	2.91	1.08	4.63e-06	
CN(C)C(=O)OC1=CCCN(C)C1COC(=O)C(C)(c1ccccc1)c1ccccc1 (stereo not given)	4.25e-07	1.41	0.39	0.000141	
CN(C)C(=O)Oc1cccnc1CO	0.00131	1.08	0.07	2.08e-05	
CN(C)C(=O)Oc1ccc[n+](C)c1COC(=O)C(C)(c1ccccc1)c1ccccc1	0.156	0.03	1.28		0.038
